Reference: US20030082194A1, “Compositions and methods for diagnosis and therapy of malignant mesothelioma” (priority 2000, published 2003)

Legend:
[1] = test system: WT1 positive tumor cell lines (TRAMP-C, BLK-SV40); test: CTL chromium release assay, WT1 positive tumor cell lines; assay type: cell-based, mouse
Description: (§1) Mice were immunized with the peptides capable of binding to murine class I MHC. Following immunization, spleen cells were stimulated in vitro and tested for the ability to lyse targets incubated with WT1 peptides. CTL were evaluated with a standard chromium release assay (Chen et al., 1994). […] target cells were incubated at 37° C. with 150 μCi of sodium ^51Cr for 90 min., in the presence or absence of specific peptides. Cells were washed three times and resuspended in RPMI with 5% fetal bovine serum. For the assay, 10^4 51Cr-labeled target cells were incubated with different concentrations of effector cells in a final volume of 200 μl in U-bottomed 96-well plates. Supernatants were removed after 4-7 hrs at 37° C., and the percentage specific lysis was determined by the formula:
(§2) % Specific lysis=100×(experimental release−spontaneous release)/(maximum release-spontaneous release).
(§3) P117-139, a peptide with motifs appropriate for binding to class I and class II MHC, was identified as described above using TSITES and BIMAS HLA peptide binding prediction analyses. Mice were immunized as described in Example 3. Following immunization, spleen cells were stimulated in vitro and tested for the ability to lyse targets incubated with WT1 peptides, as well as WT1 positive and negative tumor cells. CTL were evaluated with a standard chromium release assay. […]

[2] = test system: targets incubated with WT1 peptides (EL-4); test: CTL chromium release assay, peptide-incubated targets; assay type: cell-based, mouse
Description: as §1, §2, §3

[3] = test system: mouse B6 class I antigens (D^b or K^b molecules on RMA-S cells); test: Peptide binding to C57Bl/6 murine MHC on RMA-S cells, flow cytometry (Tables 48, 49); assay type: cell-based
Description: Peptide binding to C57Bl/6 murine MHC was confirmed using the leukemia cell line RMA-S, (Ljunggren et al., 1990). In brief, RMA-S cells were cultured for 7 hrs at 26° C. in complete medium supplemented with 1% FCS. A total of […] RMA-S cells were added into each well of a 24-well plate and incubated either alone or with the designated peptide (25 μg/ml) for 16 hrs at 26° C. and additional 3 hrs at 37° C. in complete medium. Cells were then washed three times and stained with fluorescein isothiocyanate-conjugated anti Db or anti-Kb antibody (PharMingen, San Diego, CA). Labeled cells were washed twice, resuspended and fixed in 500 μl of PBS with 1% paraformaldehyde and analyzed for fluorescence intensity in a flow cytometer (Becton-Dickinson FACSCalibur®). The percentage of increase of D^b or K^b molecules on the surface of the RMA-S cells was measured by increased mean fluorescent intensity of cells incubated with peptide compared with that of cells incubated in medium alone.

Question: How did the “lysis of WT1 positive tumor cells by peptide specific CTL” value [1] turn out when RMFPNAPYL [SEQ ID NO:185] was run?
Answer: only p130-138 specific CTL showed lysis of a WT1 positive tumor cell line

Question: And the “lysis of targets incubated with 9-mer peptide by CTL generated by immunization with p117-139” value ([2]; FIG. 10A)?
Answer: lysed

Question: And the “lysis of targets incubated with the relevant peptide by peptide specific CTL” value ([2]; chromium release assay)?
Answer: demonstrated peptide specific lysis

Question: What about the “Binding Affinity to Mouse MHC Class I” value ([3]; 9-mer peptides within p117-139, mouse B6 class I antigens, Table 49) of the same sequence?
Answer: 79%

Question: And the “binding to H-2b class I molecules / class I MHC molecules” value ([3]; peptide 25 μg/ml)?
Answer: shown to bind to H-2b class I molecules

Question: And the “Binding Affinity to Mouse MHC Class I” value ([3]; peptide 25 μg/ml, percentage of increase of Db or Kb molecules (mean fluorescent intensity) vs medium alone, Table 48)?
Answer: 0.9%
